This passage reports inhibition and A3/A2A results from patent US7112574B2, “C2,8-disubstituted adenosine derivatives and their different uses” (priority 2001, dated 2006).

By UniProt entry, the sequences of proteins in these tests, tags left out. Where a name states a change or a piece, a line headed by the entry shows the natural chain unless it says otherwise.
UniProt P25099, whole entry: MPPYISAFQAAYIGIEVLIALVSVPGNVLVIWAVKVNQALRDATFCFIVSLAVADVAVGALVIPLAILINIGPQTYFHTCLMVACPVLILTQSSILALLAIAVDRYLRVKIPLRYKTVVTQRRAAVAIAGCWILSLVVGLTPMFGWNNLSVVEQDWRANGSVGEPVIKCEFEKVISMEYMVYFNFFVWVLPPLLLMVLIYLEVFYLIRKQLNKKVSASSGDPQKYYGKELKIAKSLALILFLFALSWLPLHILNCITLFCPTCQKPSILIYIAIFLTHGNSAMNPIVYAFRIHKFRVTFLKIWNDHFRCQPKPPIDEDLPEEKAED
UniProt P30543, whole entry: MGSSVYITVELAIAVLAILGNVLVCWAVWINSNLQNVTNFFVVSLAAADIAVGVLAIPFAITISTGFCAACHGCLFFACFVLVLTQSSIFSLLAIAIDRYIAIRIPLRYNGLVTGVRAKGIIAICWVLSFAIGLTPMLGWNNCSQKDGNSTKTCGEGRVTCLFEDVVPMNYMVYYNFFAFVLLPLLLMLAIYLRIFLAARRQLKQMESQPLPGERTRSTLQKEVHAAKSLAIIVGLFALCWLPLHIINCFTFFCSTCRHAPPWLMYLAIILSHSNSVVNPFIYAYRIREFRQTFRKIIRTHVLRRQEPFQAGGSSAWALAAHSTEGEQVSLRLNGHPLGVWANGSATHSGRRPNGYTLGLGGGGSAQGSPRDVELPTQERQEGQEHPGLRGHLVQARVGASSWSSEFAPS

The target of experiment [1] is adenosine A1 receptor (Rattus norvegicus, UniProt P25099). The experiment is described as follows: biochemical. The following applies: read-out: % displacement at 10^-5 M, A1.
Experiment [2] deals with adenosine A2A receptor (Rattus norvegicus, UniProt P30543). The following applies: ratio of Ki A3 (human) to Ki A2A (rat).

Take `CCCCC#Cc1nc(N)c2ncn([C@@H]3O[C@H](CO)[C@@H](O)[C@H]3O)c2n1` [Compound 3, 2-(1-hexynyl)adenosine]: the inhibition at 10 µM in experiment [1] was found to be 63.7%. In addition, the A3/A2A in experiment [2] is reported as 2.78.
